System: DAOY (SHH subgroup) MB cell line
Assay: GD2 expression by flow cytometry after EZH2 inhibitor, DAOY
Assay type: cell-based, human
Settings: 1-10 µM of Tazemetostat for seven days

## CCN(c1cc(-c2ccc(CN3CCOCC3)cc2)cc(C(=O)NCc2c(C)cc(C)[nH]c2=O)c1C)C1CCOCC1 [Tazemetostat]
From 33.3%
  GD2 expression in percentage: 77.2%
From 5416
  GD2 Median Fluorescence Intensity (MFI): 8995

Source: patent US20260265408A1, “GD2-SPECIFIC CHIMERIC ANTIGEN RECEPTOR EFFECTOR CELLS FOR USE IN THE TREATMENT OF SOLID TUMORS, POSSIBLY IN COMBINATION WITH ENHANCER OF ZESTE HOMOLOG 2 (EZH2) INHIBITORS” (priority 2023, published 2026)
